Assay results from paper PMC7865627, “Small Molecule-Based Prodrug Targeting Prostate Specific Membrane Antigen for the Treatment of Prostate Cancer” (Cancers, 2021).

Test system: PSMA-positive PC3pip cells
Assay: In vitro cytotoxicity assay (CCK-8), PC3pip
Type: cell-based, human
Conditions: 50 μM E64
Protocol: Cells (1000/well) were seeded in 96-well culture plates the day before treatment.

Structure (SMILES)	reduction of cytotoxicity to PC3pip by E64
CC[C@H](C)[C@@H]([C@@H](CC(=O)N1CCC[C@H]1[C@H](OC)[C@@H](C)C(=O)N[C@H](C)[C@@H](O)c1ccccc1)OC)N(C)C(=O)[C@@H](NC(=O)[C@H](C(C)C)N(C)C(=O)CCCCCN1C(=O)CC(SC[C@H](NC(=O)[C@@H](CCC(=O)O)NC(=O)[C@@H](CCC(=O)O)NC(=O)[C@@H](CCC(=O)O)NC(=O)CCCCCNC(=O)[C@H]2CC[C@H](CNC(=O)CC[C@H](NC(=O)N[C@@H](CCC(=O)O)C(=O)O)C(=O)O)CC2)C(=O)NCCCCCC(=O)N[C@@H](CCCCNC(=O)CCCCC[N+]2=C(/C=C/C=C/C=C3/N(C)c4ccc5ccccc5c4C3(C)C)C(C)(C)c3c2ccc2ccccc32)C(N)=O)C1=O)C(C)C (some centres unmarked) [PSMA-1-McMMAE-Cy5.5]	no effect
CC[C@H](C)[C@@H]([C@@H](CC(=O)N1CCC[C@H]1[C@H](OC)[C@@H](C)C(=O)N[C@H](C)[C@@H](O)c1ccccc1)OC)N(C)C(=O)[C@@H](NC(=O)[C@H](C(C)C)N(C)C(=O)OCc1ccc(NC(=O)[C@H](CCCNC(N)=O)NC(=O)[C@@H](NC(=O)CCCCCN2C(=O)CC(SC[C@H](NC(=O)[C@@H](CCC(=O)O)NC(=O)[C@@H](CCC(=O)O)NC(=O)[C@@H](CCC(=O)O)NC(=O)CCCCCNC(=O)[C@H]3CC[C@H](CNC(=O)CC[C@H](NC(=O)N[C@@H](CCC(=O)O)C(=O)O)C(=O)O)CC3)C(=O)NCCCCCC(=O)N[C@@H](CCCCNC(=O)CCCCC[N+]3=C(/C=C/C=C/C=C4/N(C)c5ccc6ccccc6c5C4(C)C)C(C)(C)c4c3ccc3ccccc43)C(N)=O)C2=O)C(C)C)cc1)C(C)C (some centres unmarked) [PSMA-1-VcMMAE-Cy5.5]	more than 4.3 fold
